Measured values published in article PMC10787067, “EBF2 Links KMT2D‐Mediated H3K4me1 to Suppress Pancreatic Cancer Progression via Upregulating KLLN” (Advanced Science, 2023).

Molecular target: T1, His‐EBF2 (Homo sapiens, UniProt Q9HAK2)
T1 construct: His‐EBF2 plasmid was constructed by inserting the CDS of EBF2 into PET‐28a vector; His; made in house; host or cells: E. coli BL21 (DE3)
T1 sequence (Q9HAK2 1-575): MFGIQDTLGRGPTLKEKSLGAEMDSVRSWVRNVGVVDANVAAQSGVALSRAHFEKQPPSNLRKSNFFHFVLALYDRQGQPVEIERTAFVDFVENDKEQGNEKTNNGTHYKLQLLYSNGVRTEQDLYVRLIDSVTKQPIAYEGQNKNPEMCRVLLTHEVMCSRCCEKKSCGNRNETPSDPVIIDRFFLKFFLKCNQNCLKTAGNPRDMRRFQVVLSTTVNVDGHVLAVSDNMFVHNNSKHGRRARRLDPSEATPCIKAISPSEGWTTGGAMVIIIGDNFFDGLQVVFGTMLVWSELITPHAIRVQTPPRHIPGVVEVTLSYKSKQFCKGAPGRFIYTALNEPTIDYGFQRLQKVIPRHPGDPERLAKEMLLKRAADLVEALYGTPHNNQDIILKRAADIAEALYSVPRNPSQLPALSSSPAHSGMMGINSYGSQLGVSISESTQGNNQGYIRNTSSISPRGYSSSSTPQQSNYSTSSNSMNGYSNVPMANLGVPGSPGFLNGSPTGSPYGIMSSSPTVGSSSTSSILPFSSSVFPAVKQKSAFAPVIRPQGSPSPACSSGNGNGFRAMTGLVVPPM
Test: Peptide pull-down with purified His-EBF2 fusion protein
Type: binding
Settings: purified His-EBF2 expressed in E. coli; Figure 1C
Description: The CDS region of EBF2 gene was inserted into pET‐28a plasmid to express recombinant His‐tagged EBF2 fusion protein (His‐EBF2) in E. coli (Figure 1C). […] To gain insight into this recognition, we analyzed the crystal structure of human EBF2 in complex with a H3K4me1‐containing histone H3 tail peptide. […] We further examined the expression of EBF2 in PDAC and adjacent tissues. […] Both EBF2 and H3K4me1 marks were co‐localized in the nuclei of PDAC or adjacent cells. Western blot analysis confirmed the reduction of EBF2 expression in PDAC tissues (Figure 1G), both in the nucleus and cytoplasm (Figure S1C, Supporting Information).
His‐EBF2 plasmid was constructed by inserting the CDS of EBF2 into PET‐28a vector, transformed into E. coli BL21 (DE3), and cultured with isopropyl‐β‐D‐thiogalactoside (IPTG; Beyotime) at 16 °C for 12 h, […]. BL21 cells were collected and sonicated in cold PBS buffer, and His‐fusion proteins were purified with High Affinity Nickel beads (Genscript, Nanjing, China). The purity of His‐fusion proteins was evaluated by SDS‐PAGE.

How did the “pull-down of purified His-EBF2 by peptide” value turn out when “H3K4me3: C-terminal biotin-tagged 19 amino acid N-terminal peptide of H3K4me3” was run?
Its value is “not by H3K4me3”.
